According to paper PMC4811774:

Molecular target: Toc75 POTRA-His (protein fragment encompassing all three Toc75 POTRA domains and a C-terminal hexahistidine tag) (Arabidopsis thaliana) (UniProt Q9STE8)
Test: pull-down; solid phase binding: increasing amounts of POTRA-His immobilised on Ni-NTA resin, incubated with in vitro translated 35S-labelled proteins in HMK buffer (50 mM Hepes-KOH pH 7.5, 2 mM MgCl2, 40 mM KOAc) with 10 mM imidazole and 0.1% Triton X-100, 30 min, 23°C; phosphorimaging

percent of added radiolabeled protein associated with the resin: < 10%
Substance: [35S]SSU (from UniProt P10795 55-180) (natural protein)
